# Screening data from PubChem.
# HCMV UL50-53 inh: cytomegalovirus nuclear egress complex inhibition | HTRF UL50-UL53 interaction, normalized percent inhibition | inhibition, % (test concentration not listed) | hit rate 0.15% among 190,000; in the data active = inhibition above about 27%, passing the limit was not always enough
# GIV-Gai inh: GIV-Galpha-i interaction inhibition. AID 1224905. actives 0.42% (n = 210,000). percent of control (FP), % (test concentration not listed). Galpha-i3/FITC-GIV peptide fluorescence polarization, 90 min; stronger effect = lower value; scaled: aluminum fluoride 0%, vehicle 100%;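 active = replicate mean at 85% of control or lower, very high polarization wells dropped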;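 also: wells of about 15 µL received 100 nL stock; the first replicate is given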
# GIV-Gai FP conf: confirmation of inhibitors of GIV binding to rat Galpha-i3; fluorescence polarization, mP at 100 µM; hit rate 38% among 580; FITC-GIV peptide binding to Galphai3, fluorescence polarization; stronger effect = lower value; shares compounds with GIV-Gai inh; AID 1259350;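 active = inhibition score of 15 or more, meaning 100 minus mean polarization as percent of control over three replicates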
# GIV-Gai AS conf: confirmation of inhibitors of GIV binding to human Galpha-i3 | shares compounds with GIV-Gai inh | AlphaScreen Galphai3-GIV binding, purified proteins, 90 min; stronger effect = lower value | AlphaScreen counts at 100 µM | hit rate 39% among 580 | AID 1259351;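 active = inhibition score at or above a set limit, where the score is 100 minus the three-replicate mean percent of control signal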
# The depositor's hits bear a star; x = no result; ! = repeats disagree. Shown are actives, neighbours in structure and some others; about 0.46% of the full set was active somewhere.
# Short keys: A = HCMV UL50-53 inh; B = GIV-Gai inh; C = GIV-Gai FP conf; D = GIV-Gai AS conf
Cc1ccc(C(=O)O)cc1Nc1nc2ccccc2n2cnnc12
  A: -3	B: 76*	C: 43*	D: 18787*

C/C(=N\NC(N)=O)c1ccc(C)c(C)c1
  A: -15	B: x	C: x	D: x

Cc1ccc(/C=C2/C=CC(=O)O2)o1
  A: -25	B: x	C: x	D: x

CCc1nc2oc(C(=O)c3ccccc3)c(N)c2c2c1COC(C)(C)C2
  A: x	B: 100	C: x	D: x

CCc1nc2oc(C(=O)c3ccc(Cl)cc3)c(N)c2c2c1COC(C)(C)C2
  A: -27	B: 80*	C: 77	D: 46961

Cc1ccc(S(=O)(=O)c2nc3ccccc3nc2NCCc2ccccc2)cc1
  A: -24	B: 78*	C: 65	D: 42344

COc1ccccc1CNc1nc2ccccc2nc1S(=O)(=O)c1ccc(C)cc1
  A: -22	B: 114	C: x	D: x

COCC(=O)N1CCc2c(c(C(=O)N3CCCC(C(=O)Nc4ccccc4)C3)nn2C)C1 (stereo not given)
  A: x	B: 107	C: x	D: x

CC(=O)C1=NN(c2ccc(C)cc2)C2(S1)c1ccccc1C(c1ccc(Cl)cc1)=NN2c1ccccc1 (stereo not given)
  A: x	B: 104	C: x	D: x

O=c1cc(O)c2sc3nc(-c4ccco4)cc(C(F)(F)F)c3c2[nH]1
  A: -64	B: 72*	C: 60*	D: 5742*

Cc1cc(C(F)(F)F)c2c(n1)sc1c(O)cc(=O)[nH]c12
  A: x	B: 109	C: x	D: x

COc1cc(C2NC(=O)C3C4=C(CCC4)SC3N2)ccc1OCC(=O)Nc1ccc(C)cc1 (stereo not given)
  A: -67	B: x	C: x	D: x

Nc1nnc(-c2ccc3nsnc3c2)o1
  A: 2	B: 106	C: x	D: x

Nc1ccc2nsnc2c1
  A: 96*	B: 46*	C: 5.4*	D: 3926*

Cc1cc2nc3c(=O)[nH]c(=O)[nH]c3nc2cc1N
  A: x	B: 64*	C: 46*	D: 30002*

CN(C)c1ccc2nc3c(=O)[nH]c(=O)[nH]c3nc2c1
  A: x	B: 77*	C: 33*	D: 14401*

Cc1cc2nc3[nH]c(=O)[nH]c(=O)c3nc2cc1C
  A: -112	B: x	C: x	D: x

O=c1[nH]c(=O)c2nc3ccc(Cl)cc3nc2[nH]1
  A: x	B: 103	C: x	D: x

CC1CN(S(=O)(=O)c2ccc(C(=O)Nc3ccc(-c4nc5ccccc5o4)cc3)cc2)CC(C)O1 (stereo not given)
  A: -18	B: 100	C: x	D: x

O=C1COc2ccc(S(=O)(=O)N3CCN(C(=O)Cc4ccccc4Br)CC3)cc2N1
  A: -24	B: 108	C: x	D: x

O=C(CN1CCN(Cc2ccc(F)cc2)C(=O)C1=O)N1CCN(c2ccccn2)CC1
  A: -29	B: 104	C: x	D: x

C=CCN1C(=O)/C(=C2/Sc3ccc(Cl)cc3N2CC)SC1=S
  A: x	B: 111	C: x	D: x

C=CCN1C(=O)/C(=C2/Sc3ccccc3N2CC)SC1=S
  A: x	B: 77*	C: 72	D: 3469*

Cc1sc(NC(=O)c2ccco2)c(CN2CCc3ccccc3C2)c1C
  A: 5	B: x	C: x	D: x

Cc1ccc(C)c(NC(=O)c2cccc(S(=O)(=O)N3CCCC3)c2)c1
  A: 10	B: x	C: x	D: x

# Full records, looked up by structure. Order of values: HCMV UL50-53 inh	GIV-Gai inh	GIV-Gai FP conf	GIV-Gai AS conf
# Cc1cc2nc3[nH]c(=O)[nH]c(=O)c3nc2cc1C as listed: -112	x	x	x
# CCc1nc2oc(C(=O)c3ccccc3)c(N)c2c2c1COC(C)(C)C2 as listed: x	100	x	x

# Next part:
# Short keys: A = HCMV UL50-53 inh; B = GIV-Gai inh; C = GIV-Gai FP conf; D = GIV-Gai AS conf
Cc1ccc(C(=O)Nc2ccc(S(=O)(=O)O)c3cc(S(=O)(=O)O)cc(S(=O)(=O)O)c23)cc1NC(=O)c1cccc(NC(=O)Nc2cccc(C(=O)Nc3cc(C(=O)Nc4ccc(S(=O)(=O)O)c5cc(S(=O)(=O)O)cc(S(=O)(=O)O)c45)ccc3C)c2)c1
  A: -50	B: 76*!	C: 61*	D: 12181*

COc1ccc(C(=O)Nc2ccc3oc(-c4ccccc4)nc3c2)cc1Br
  A: -12	B: 105	C: x	D: x

Cc1[nH][nH]c(=O)c1C=Nc1ccc(O)c(C(=O)O)c1
  A: 4	B: 88	C: 63	D: 6341*

Cc1cc(C=Nc2ccc(O)c(C(=O)O)c2)c(C)n1-c1ccc(N(C)C)cc1
  A: -12	B: x	C: x	D: x

CCOC(=O)C1=C(C)N=c2s/c(=C\c3cc([N+](=O)[O-])ccc3N3CCOCC3)c(=O)n2C1c1cccc(OC)c1 (stereo not given)
  A: -21	B: 90	C: 63	D: 56560

CCOC(=O)C1=C(C)N=c2s/c(=C\c3cc([N+](=O)[O-])ccc3N3CCOCC3)c(=O)n2C1c1ccccc1 (stereo not given)
  A: -3	B: 97	C: x	D: x

CC1(C)CC(=O)C2=C(C1)Nc1ccccc1N(C(=S)Nc1cccc(Cl)c1)C2c1ccco1 (stereo not given)
  A: -1	B: x	C: x	D: x

COc1ccc(N2C(SC)=NC(=Nc3cccc(C)c3)C23CCCCC3)cc1
  A: x	B: 117	C: x	D: x

O=C(Nc1ccc(N2CCOCC2)c2nonc12)c1cccs1
  A: 4	B: 110	C: x	D: x

COc1ccc(NC(=S)Nc2ccc(N3CCOCC3)c3nonc23)cc1OC
  A: -63	B: 72*	C: 56*	D: 23631*

Cc1ccc(C(=O)O)cc1NS(=O)(=O)c1ccc2c(c1)CCN2C(=O)CCC(=O)O
  A: -35	B: 97	C: x	D: x

Cc1nn(C)c(C)c1CCN(C)C(=O)Nc1cccc(Br)c1
  A: 7	B: 104	C: x	D: x

COc1cc(/C=C2\C(=O)NC(=O)N(C)C2=O)ccc1OCc1ccc(C(=O)O)cc1
  A: 0	B: 107	C: x	D: x

O=C(O)COc1ccc(/C=C2\C(=O)NC(=S)N(c3ccc(F)cc3)C2=O)cc1Br
  A: -33	B: 92	C: x	D: x

O=C1NC(=S)NC(=O)C1=Cc1ccc(OCc2ccc(C(=O)O)cc2)c(Br)c1
  A: -20	B: 86	C: 11*	D: 2330*

O=C(O)COc1ccc(/C=C2\C(=O)NC(=S)N(c3ccc(Cl)cc3)C2=O)cc1Br
  A: -30	B: 73*	C: 34*	D: 55572

COc1ccc2c(c1)N(C)/C(=c1/s/c(=C3\SC(=S)N(C4CCCCC4)C3=O)n(C3CCCCC3)c1=O)S2
  A: x	B: 103	C: x	D: x

CCN(CC)C(=O)Oc1cccc2c1C(=O)c1cccc(OC(=O)N(CC)CC)c1C2=O
  A: x	B: 113	C: x	D: x

CCOC(=O)N1CCN(C(=O)c2ccc3nc(-c4ccc(OC)c(OC)c4)c(-c4ccc(OC)c(OC)c4)nc3c2)CC1
  A: x	B: 84*	C: 65	D: 50289

COc1ccc(-c2nc3ccc(C(=O)N4CCN(c5ccccc5)CC4)cc3nc2-c2ccc(OC)c(OC)c2)cc1OC
  A: x	B: 102	C: x	D: x

Cc1ccc(C)n1-c1sccc1C(=O)CC#N
  A: -12	B: 106	C: x	D: x

Cc1ccc(C)n1-c1sccc1C(=O)O
  A: 28	B: 27*	C: 55	D: 3223*

Cc1ccc(C)n1-c1ccc(CC(=O)O)cc1
  A: -23	B: 36*	C: 33*	D: 2612*

CCc1ccc(-n2c(C)ccc2C)cc1
  A: -34	B: x	C: x	D: x

Cc1ccc(C)n1-c1ccc(C(=O)O)c(C(=O)O)c1
  A: 11	B: 60*	C: 49*	D: 3015*

# Look-ups from the list.
# In GIV-Gai inh, `CCN(CC)C(=O)Oc1cccc2c1C(=O)c1cccc(OC(=O)N(CC)CC)c1C2=O` is listed with 113
# In HCMV UL50-53 inh, `Cc1cc(C=Nc2ccc(O)c(C(=O)O)c2)c(C)n1-c1ccc(N(C)C)cc1` is listed with -12
# In GIV-Gai inh, `COc1ccc2c(c1)N(C)/C(=c1/s/c(=C3\SC(=S)N(C4CCCCC4)C3=O)n(C3CCCCC3)c1=O)S2` is listed with 103

# Carrying on:
# Short keys: A = HCMV UL50-53 inh; B = GIV-Gai inh; C = GIV-Gai FP conf; D = GIV-Gai AS conf
Cc1ccc(C)n1-c1cccc(C(=O)O)c1
  A: 21	B: x	C: x	D: x

COc1ccc(NC(=O)CCCn2c(=O)c3sccc3n(Cc3ccccc3F)c2=O)cc1
  A: -8	B: 105	C: x	D: x

Cn1c(=O)c(-c2ccccc2)c2c3c(cccc31)C(=O)c1ccccc1-2
  A: x	B: 110	C: x	D: x

Cn1c(=O)c(C(=O)CS(=O)(=O)O)c2c3c(cccc31)C(=O)c1ccccc1-2
  A: x	B: 55*	C: 22*	D: 7785*

CCOC(=O)c1[nH]c(C)c(S(=O)(=O)NC2CCCC2)c1C
  A: -26	B: 105	C: x	D: x

CC(C)=NNC(=O)Cc1c[nH]c2cccc(OCC(O)CNC(C)(C)C)c12 (stereo not given)
  A: -26	B: 90	C: 76	D: 32755

CC(C)OC(=O)c1cc2c(OCC(O)CNC(C)(C)C)cccc2[nH]1 (stereo not given)
  A: -14	B: x	C: x	D: x

CN1CCCc2cc(CN)ccc21
  A: 0	B: 69*	C: 54*	D: 4022*

CCOc1ccc(CC(=O)NCC(c2ccc3c(c2)CCCN3C)N2CCCC2)cc1 (stereo not given)
  A: -13	B: 105	C: x	D: x
